In general, IC50 refers to the concentration that gives 50% inhibition. A high value points to weaker potency in that assay.

Chains of the proteins cited; added tags and fusions are not shown.
UniProt Q14145, whole entry: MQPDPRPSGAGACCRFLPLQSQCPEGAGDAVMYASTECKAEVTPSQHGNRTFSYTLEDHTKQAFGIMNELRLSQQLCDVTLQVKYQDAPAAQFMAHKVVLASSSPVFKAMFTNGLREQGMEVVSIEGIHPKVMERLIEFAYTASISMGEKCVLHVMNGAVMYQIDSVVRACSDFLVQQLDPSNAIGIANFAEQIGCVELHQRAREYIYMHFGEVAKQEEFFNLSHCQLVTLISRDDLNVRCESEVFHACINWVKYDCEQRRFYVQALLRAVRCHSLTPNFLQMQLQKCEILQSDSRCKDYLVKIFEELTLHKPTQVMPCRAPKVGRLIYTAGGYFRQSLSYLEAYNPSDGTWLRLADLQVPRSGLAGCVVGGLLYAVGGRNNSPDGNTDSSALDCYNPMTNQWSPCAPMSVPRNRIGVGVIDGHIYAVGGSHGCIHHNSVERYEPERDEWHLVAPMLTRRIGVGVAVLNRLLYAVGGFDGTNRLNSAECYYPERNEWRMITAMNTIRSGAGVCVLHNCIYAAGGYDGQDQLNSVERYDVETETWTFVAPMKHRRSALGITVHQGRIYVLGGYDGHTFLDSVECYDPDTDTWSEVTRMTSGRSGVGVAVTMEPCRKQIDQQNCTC

Where two headings read alike, the source gives them in different places.

From patent US20250093263A1, “FRET-BASED ASSAYS” (The General Hospital Corporation, priority 2021, published 2025) come the findings set out here.

The target of experiment [1] is T1, Keap1 (His/GST) (Homo sapiens, UniProt Q14145). In words: Keap1 TR-FRET Assay 3 (CDDO-FITC/Tb-Anti-6xHis). In kind it is binding. (TR-FRET usually uses a lanthanide donor and a delayed reading to cut background.)
Experiment [2] addresses T2, WT Keap1 (tag-free, full-length) (Homo sapiens, UniProt Q14145). The experiment can be described thus: biochemical.
Experiment [3] concerns the target T2, WT Keap1 (tag-free, full-length). The experiment can be described thus: biochemical. This is another data set of the same source.
Experiment [4] has as its target T1, Keap1 (His/GST). The experiment can be described thus: biochemical.

On to `CC1(C)CC[C@]2(C(=O)NCCCOCCOCCOCCCNC(=S)Nc3ccc(-c4c5ccc(=O)cc-5oc5cc(O)ccc45)c(C(=O)O)c3)CC[C@]3(C)[C@H](C(=O)C=C4[C@@]5(C)C=C(C#N)C(=O)C(C)(C)[C@@H]5CC[C@]43C)[C@@H]2C1` [CDDO-FITC, 5-(3-(1-((4aS,6aR,6bS,8aR,12aS,14aR,14bS)-11-cyano-2,2,6a,6b,9,9,12a-heptamethyl-10,14-dioxo-1,3,4,5,6,6a,6b,7,8,8a,9,10,12a,14,14a,14b-hexadecahydropicen-4a(2H)-yl)-1-oxo-6,9,12-trioxa-2-azapentadecan-15-yl)thioureido)-2-(6-hydroxy-3-oxo-3H-xanthen-9-yl)benzoic acid], for which the Kd in experiment [1] (6×His/GST Keap1, CoraFluor-labeled anti-6×His antibody, read-out: Kd,app of CDDO-FITC) stood at 0.0068 ± 0.0011 µM.

`CC1=C(O)C(=O)C=C2C1=CC=C1[C@@]2(C)CC[C@@]2(C)[C@@H]3C[C@](C)(C(=O)O)CC[C@]3(C)CC[C@]12C` [CS, celastrol]: the IC50 came out at 13 µM in experiment [1], 30.9 µM in experiment [2], 21.8 µM in experiment [3] and 16.8 µM in experiment [4]. Also, the Kd in experiment [2] came to 11.2 µM; in experiment [3] it was 11.4 µM.
